# Data as given in US12539333B2, “Tetracycline complexes with sustained activity” (FRAUNHOFER-GESELLSCHAFT ZUR FÖRDERUNG DER ANGEWANDTEN …, priority 2018, dated 2026).
# Assay: Solubility in different solvents
substance,measurement,value
1:2 Complex of Minocycline (Free Base) and Magnesium Stearate [Example 1],solubility in water,reduced water solubility compared to the parent drug
